{"source": "paper PMC8110578", "about": "“Phenylethynylbenzyl-modified biguanides inhibit pancreatic cancer tumor growth” (Scientific Reports, 2021)", "test_system": "KP4 cells", "assay": "Cell death assay (trypan blue), KP4 cells", "assay_type": "cell-based, human", "settings": "metformin 5 mM, phenformin 50 µM, 24 h", "excerpt": "Experimental. […] At the end of the treatments, adherent cells were recovered by trypsinization, along with floating cells recovered by centrifugation of the culture medium. Floating and adherent cells were pooled together. The faction of dead cells was quantified by counting the proportion of trypan blue-positive (dead cells) and the proportion of living cells (trypan blue-negative)."}
{"smiles": "[H]/N=C(/N)N/C(=N/[H])NCCc1ccccc1", "note": "[phenformin, reference compound]", "values": [{"measurement": "Effect on the fraction of dead KP4 cells (in words)", "result": "no significant effects"}]}
